Assay results taken from paper PMC4283194 (Neuroimage, 2014).
Values joined by “and” are separate entries in the source; they are usually repeats but may differ in a detail not shown here. Equal values may be shown once.

Sequences of proteins named here, by UniProt entry; tags and fusion partners are left off.
UniProt P21554, whole entry: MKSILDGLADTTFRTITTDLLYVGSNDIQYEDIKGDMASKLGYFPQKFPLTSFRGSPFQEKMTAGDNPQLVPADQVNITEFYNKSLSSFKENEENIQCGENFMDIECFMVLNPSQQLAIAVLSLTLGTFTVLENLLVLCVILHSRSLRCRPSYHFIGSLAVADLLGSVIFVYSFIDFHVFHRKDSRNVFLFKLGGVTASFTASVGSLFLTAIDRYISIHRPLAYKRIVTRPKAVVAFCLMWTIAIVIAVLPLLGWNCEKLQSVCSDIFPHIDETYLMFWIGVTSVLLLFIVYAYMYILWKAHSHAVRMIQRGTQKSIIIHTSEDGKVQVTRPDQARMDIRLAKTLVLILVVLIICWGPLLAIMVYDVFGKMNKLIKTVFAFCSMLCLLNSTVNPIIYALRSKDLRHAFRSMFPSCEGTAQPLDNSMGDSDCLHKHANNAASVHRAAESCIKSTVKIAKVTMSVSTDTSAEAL

Target: CB1 receptor (Homo sapiens, UniProt P21554)
Test: [11C]MePPEP PET, VT by classic spectral analysis parametric maps (SA-maps)
Format: in vivo
Design: assess the stability of CB1-receptor quantification in humans in vivo; from tissue; host or cells: living human brain (healthy volunteers), in vivo PET
Experimental: Continuous and intermittent blood samples were collected to allow the subsequent generation of metabolite-corrected arterial plasma time–activity curves (TACs) ([Hammers et al., 2008]). During the first 15 min blood was withdrawn continuously at a rate of 300 ml/h and radioactivity measured in a BGO detection system ([Jones et al., 1994]). To quantify plasma and whole blood radioactivity, as well as to allow quantification of the parent fraction of the radiotracer, intermittent discrete (10 ml) samples were taken with heparinised syringes before the scan (baseline) and at the following time points after scan start: 3, 5, 10, 15, 20, 30, and 50 min. At 75 min, a larger 17 ml sample was taken to allow quantification despite radioactivity decay. […] Continuous plasma input functions (IF) were derived by cross-calibration and combination of the continuous and discrete data, multiplication with the fitted plasma-over-blood ratio, and correction for parent radiotracer fraction, as described in detail in previous studies ([Hammers et al., 2007a], [Jones et al., 1994]).
The resulting parametric maps of VT values were then sampled in the eight selected ROIs.

For `COc1cccc([C@H]2C[C@@H](N[C@H](C)c3ccccc3)C(=O)N2c2ccc(C(F)(F)F)cc2)c1` [[^11C]MePPEP, (3R,5R)-5-(3-methoxy-phenyl)-3-((R)-1-phenyl-ethylamino)-1-(4-trifluoro-methyl-phenyl)-pyrrolidin-2-one], the “Ratio pallidum/pons of VT” value was 3.6, the “Median % diff (test–retest) of VT, mean (SD) across regions” value (8 ROIs) was 13.5 (3.3) % and 13.5 ± 3.3% and the “ICC of VT” value (ACG) was 0.85. For the same molecule, the “Mean BS % CV of VT” value (ACG) was 34.7%, the “Median % diff (test–retest) of VT” value (ACG) was 12.5% and the “ICC of VT” value (Accumbens) was 0.83. For the same molecule, the “Mean BS % CV of VT” value (Accumbens) was 36.0%, the “Median % diff (test–retest) of VT” value (Accumbens) was 12.3% and the VT median (Accumbens) was 9.5. For the same molecule, the “ICC of VT” value (Caudate) was 0.81, the “Mean BS % CV of VT” value (Caudate) was 40.0% and the “Median % diff (test–retest) of VT” value (Caudate) was 12.3%. The “ICC of VT” value (Hippocampus) was 0.87, the “Mean BS % CV of VT” value (Hippocampus) was 34.2% and the “Median % diff (test–retest) of VT” value (Hippocampus) was 9.6%. The “ICC of VT” value (IFG) was 0.85, the “Mean BS % CV of VT” value (IFG) was 37.0% and the “Median % diff (test–retest) of VT” value (IFG) was 12.0%. The “ICC of VT” value (Pallidum) was 0.83, the “Mean BS % CV of VT” value (Pallidum) was 35.4% and the “Median % diff (test–retest) of VT” value (Pallidum) was 12.6%. For the same molecule, the “ICC of VT” value (Pons) was 0.81, the “Mean BS % CV of VT” value (Pons) was 39.0% and the “Median % diff (test–retest) of VT” value (Pons) was 20.2%. For the same molecule, the “ICC of VT” value (Thalamus) was 0.76, the “Mean BS % CV of VT” value (Thalamus) was 37.1% and the “Median % diff (test–retest) of VT” value (Thalamus) was 16.8%.
